Reference: US9127024B2 (Intrexon Corporation, priority 2013, dated 2015)

By UniProt entry, the sequences of proteins in these tests, tags left out. Residues count along the entry.
UniProt O77240, 1-513: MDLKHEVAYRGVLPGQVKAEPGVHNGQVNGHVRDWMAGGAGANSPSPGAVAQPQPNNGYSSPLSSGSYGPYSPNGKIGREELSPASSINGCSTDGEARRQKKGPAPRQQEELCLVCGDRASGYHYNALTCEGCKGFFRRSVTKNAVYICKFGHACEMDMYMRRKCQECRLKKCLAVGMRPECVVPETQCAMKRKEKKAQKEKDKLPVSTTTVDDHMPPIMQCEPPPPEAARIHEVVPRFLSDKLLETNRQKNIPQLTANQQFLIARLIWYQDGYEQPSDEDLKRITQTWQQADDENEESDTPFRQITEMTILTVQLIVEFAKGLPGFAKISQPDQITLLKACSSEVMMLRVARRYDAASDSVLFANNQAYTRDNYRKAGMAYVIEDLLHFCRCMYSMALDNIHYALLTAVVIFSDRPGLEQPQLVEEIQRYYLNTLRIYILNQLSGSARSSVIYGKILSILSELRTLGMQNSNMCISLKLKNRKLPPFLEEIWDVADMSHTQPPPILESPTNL

Target: RheoSwitch® (CHO-K1_RS-1 cells, firefly Luciferase reporter) (Choristoneura fumiferana, UniProt O77240)
Experiment: in vitro gene switch assay (fLUC Luciferase expression, potency screen)
Type: cell-based
Details: 24 hours with compound, 25 μM to 2.5 pM, figure in parentheses after a value not defined
Procedure: Representative Compounds of the Disclosure were tested for biological activity in an in vitro gene switch assay (Tables 1 and 1A). Gene switch assays are disclosed, e.g., in U.S. Pat. Nos. 8,076,517; 7,456,315; 7,304,161; and 6,258,603.
CHO-K1 cells were stably transfected with a plasmid (RS-1, FIG. 1) coding for firefly Luciferase (fLUC) under the control of the RheoSwitch® resulting in the stable cell line CHO-K1_RS-1. A master cell bank was created containing approximately 100 vials at 5×10^6 cells per vial. One vial of CHO-K1_RS-1 was thawed and cultured for two weeks prior to each in vitro potency screening.
Twenty-four (24) hours prior to treatment with the control and test compounds the CHO-K1_RS-1 cells were seeded into white-opaque 384-well cell culture plates at 3,600 cells per well in 30 μl of culture medium. The cells were incubated in a humidified CO2 incubator at 37° C. until compound treatment.
Compounds were prepared at 25 mM in 100% dry DMSO and stored at room temperature in sealed 1 ml tubes prior to subsequent dilution and assay. […]
The cells were incubated with the compound for 24 hours in a humidified CO2 incubator at 37° C. […] The reagent was incubated with the cells for 10-120 minutes prior to reading on a Molecular Devices Spectramax L luminometer. […]

“(R)—N-(3,5-dimethylbenzoyl)-N-(2,2-dimethylpentan-3-yl)-1-hydroxy-6-methyl-3,4-dihydro-1H-benzo[c][1,5,2]dioxaborepine-7-carbohydrazide [Cpd. No. 79]” was tested, and the EC50 was 407 nM.
